We go through one compound from BindingDB's records for 2547074.

By UniProt entry, the sequences of proteins in these tests, tags left out.
UniProt Q99720, whole entry: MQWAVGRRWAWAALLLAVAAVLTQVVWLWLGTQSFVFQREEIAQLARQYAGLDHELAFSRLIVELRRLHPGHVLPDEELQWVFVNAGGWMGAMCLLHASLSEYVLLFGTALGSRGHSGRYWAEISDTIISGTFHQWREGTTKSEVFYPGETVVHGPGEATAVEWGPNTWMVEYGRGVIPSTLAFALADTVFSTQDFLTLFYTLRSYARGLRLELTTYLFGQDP

One may read the Ki as the equilibrium dissociation constant of an inhibitor or competing ligand from its target.

Experiment [1] has as its target T1, Sigma non-opioid intracellular receptor 1 (Homo sapiens, UniProt Q99720). The experiment in a line: Compound was evaluated for binding affinity towards sigma opioid receptor using [3H]DTG in guinea pig ileum.
Experiment [2] has as its target T1, Sigma non-opioid intracellular receptor 1. The experiment in a line: Compound was evaluated for binding affinity towards sigma opioid receptor using [3H](+)-3-PPP in guinea pig ileum.

As to `CN(C(=O)Cc1ccc(Cl)c(Cl)c1)[C@@H]1CCCC[C@@H]1N1CCCC1`, the values for the Ki in experiment [1] and in experiment [2] were 118 nM and 221 nM, respectively.
